Read-outs that look alike come from different tables or passages of the source.
Experiments:
Cytosolic AR = target: T1, Cytosolic AR (Rattus norvegicus, UniProt P15207); assay: AR competitive binding assay (3H-MIB displacement, rat ventral prostate cytosol)
T1 construct: from tissue; host or cells: ventral prostate cytosol of Sprague-Dawley rats
T1 sequence (P15207 1-902): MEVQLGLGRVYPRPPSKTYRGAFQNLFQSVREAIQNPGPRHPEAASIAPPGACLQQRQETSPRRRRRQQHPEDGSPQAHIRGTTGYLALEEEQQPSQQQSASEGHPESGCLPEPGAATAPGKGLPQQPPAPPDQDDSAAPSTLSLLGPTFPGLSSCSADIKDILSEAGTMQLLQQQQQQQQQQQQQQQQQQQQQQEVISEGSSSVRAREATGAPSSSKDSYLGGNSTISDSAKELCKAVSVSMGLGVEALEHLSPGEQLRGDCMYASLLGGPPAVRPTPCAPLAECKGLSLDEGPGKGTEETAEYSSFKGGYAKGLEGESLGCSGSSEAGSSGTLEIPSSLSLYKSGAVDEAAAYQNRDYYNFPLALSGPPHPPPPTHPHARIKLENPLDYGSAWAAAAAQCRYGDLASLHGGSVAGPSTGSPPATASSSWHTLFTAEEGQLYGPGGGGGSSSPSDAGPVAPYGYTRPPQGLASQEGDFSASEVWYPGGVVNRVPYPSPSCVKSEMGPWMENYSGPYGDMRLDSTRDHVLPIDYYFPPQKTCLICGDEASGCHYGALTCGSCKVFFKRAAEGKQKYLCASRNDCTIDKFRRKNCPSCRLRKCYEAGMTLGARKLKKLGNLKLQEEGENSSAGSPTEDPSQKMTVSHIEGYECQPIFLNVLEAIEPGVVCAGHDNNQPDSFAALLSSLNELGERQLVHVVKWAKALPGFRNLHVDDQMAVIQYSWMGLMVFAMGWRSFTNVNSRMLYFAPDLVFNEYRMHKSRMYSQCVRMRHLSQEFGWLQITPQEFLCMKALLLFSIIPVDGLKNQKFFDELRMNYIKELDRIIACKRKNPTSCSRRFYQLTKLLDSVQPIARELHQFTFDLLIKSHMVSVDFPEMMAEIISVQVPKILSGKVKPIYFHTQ

AR = AR (Rattus norvegicus, UniProt P15207)

CC(=O)Nc1ccc(OC[C@](C)(O)C(=O)Nc2ccc([N+](=O)[O-])c(C(F)(F)F)c2)cc1 [Compound S-4]
Ki (Cytosolic AR; read-out: Affinity): 3.98 ± 0.7 nM
Ki (Cytosolic AR; read-out: Ki): 4 ± 0.7 nM
in vivo activity in the levator ani muscle, bone, and pituitary (AR): full agonists
in vivo activity in the prostate (AR): partial agonists

C[C@](O)(COc1ccccc1)C(=O)Nc1ccc([N+](=O)[O-])c(C(F)(F)F)c1 [Compound S-9]
Ki (Cytosolic AR): 4.6 ± 0.26 nM

C[C@](O)(CS(=O)(=O)c1ccc(F)cc1)C(=O)Nc1ccc([N+](=O)[O-])c(C(F)(F)F)c1 [Compound X-3]
Ki (Cytosolic AR; read-out: Affinity): 28 ± 10 nM

Reference: patent publication US20090156614A1, “Selective androgen receptor modulators, analogs and derivatives thereof and uses thereof” (priority 2006, published 2009)
